# ChEMBL document CHEMBL5725589, “Heterocyclic compounds as PI3K-γ inhibitors” (2018)
# Amino acid sequences for entries named in this document (tags omitted). A change or cut given only in a name is not applied to a line headed by its entry.
# UniProt P23458: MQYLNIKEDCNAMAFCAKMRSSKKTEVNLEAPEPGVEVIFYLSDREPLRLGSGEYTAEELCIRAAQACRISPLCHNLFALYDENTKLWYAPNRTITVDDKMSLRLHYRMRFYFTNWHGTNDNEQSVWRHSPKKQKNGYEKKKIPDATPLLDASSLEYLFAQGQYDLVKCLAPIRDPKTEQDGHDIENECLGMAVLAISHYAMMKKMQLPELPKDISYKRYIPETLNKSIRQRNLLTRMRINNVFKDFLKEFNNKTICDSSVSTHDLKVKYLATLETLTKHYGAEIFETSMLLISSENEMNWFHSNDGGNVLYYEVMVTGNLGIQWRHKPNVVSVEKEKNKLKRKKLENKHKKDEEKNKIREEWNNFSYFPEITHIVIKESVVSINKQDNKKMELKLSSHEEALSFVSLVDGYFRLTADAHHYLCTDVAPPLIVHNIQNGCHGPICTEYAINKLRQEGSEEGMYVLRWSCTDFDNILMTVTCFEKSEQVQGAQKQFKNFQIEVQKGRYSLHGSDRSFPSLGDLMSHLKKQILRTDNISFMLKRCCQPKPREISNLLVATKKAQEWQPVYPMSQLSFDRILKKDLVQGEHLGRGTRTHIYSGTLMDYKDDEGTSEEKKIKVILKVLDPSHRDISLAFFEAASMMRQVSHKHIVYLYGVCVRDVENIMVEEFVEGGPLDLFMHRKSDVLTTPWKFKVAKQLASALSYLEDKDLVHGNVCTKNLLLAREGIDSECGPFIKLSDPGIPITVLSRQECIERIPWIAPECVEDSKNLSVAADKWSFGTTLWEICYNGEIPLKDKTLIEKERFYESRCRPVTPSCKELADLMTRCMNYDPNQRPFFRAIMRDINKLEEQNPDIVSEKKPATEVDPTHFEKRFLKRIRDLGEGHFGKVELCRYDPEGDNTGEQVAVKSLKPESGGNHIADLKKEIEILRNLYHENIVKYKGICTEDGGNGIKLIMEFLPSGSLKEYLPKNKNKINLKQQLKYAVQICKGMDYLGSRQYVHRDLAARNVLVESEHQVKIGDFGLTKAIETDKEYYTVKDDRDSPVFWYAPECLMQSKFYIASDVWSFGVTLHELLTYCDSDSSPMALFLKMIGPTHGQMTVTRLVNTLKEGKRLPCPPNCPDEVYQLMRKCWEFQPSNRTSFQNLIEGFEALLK
# pIC50: −log10 of the molar value.
# Biological target: Tyrosine-protein kinase JAK1 (Homo sapiens, UniProt P23458)
# Test: In Vitro JAK Kinase Assay: Compounds herein were tested for inhibitory activity of JAK targets according to the following in vitro assay described in Park et al., Analytical Biochemistry 1999, 269, 94-104. The catalytic domains of human JAK1 (a.a. 837-1142), JAK2 (a.a. 828-1132) and JAK3 (a.a. 781-1124) were expressed using baculovirus in insect cells and purified. The catalytic activity of JAK1 …
compound,measurement,value
CN(C)Cc1cc(F)cc(OC2CCN(CC(CC#N)n3cc(-c4ncnc5[nH]ccc45)cn3)CC2)c1 (stereo unspecified),pIC50,> 7.00
